# Measured values reported in PubChem BioAssay AID623908 (Johns Hopkins Ion Channel Center, 2012).
# The entries are a selection whose mix differs from that of the whole data set. Active and inactive are the calls of the source.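 How the source made its calls: active means duplicate-averaged ratio beyond 3 SD from buffer wells, up or down, though filed actives are nearly all decreases; inactive means the rest.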
# Assay: membrane potential response in parental HEK293 cells, counter-screen for CHT activator project, cell-based, membrane potential dye (AID 623908)
# Settings: parental HEK293, membrane potential dye fluorescence (FDSS); at 10 µM; measured after EC20 choline addition
row,SMILES,ratio readout change
1,CCC1=CC2Cc3nc4ccc(Cl)cc4c(N)c3C(C1)C2 (configuration not stated),active: -49.2
2,CC1CCC(C(C)C)C(OP(=O)(Nc2ccccn2)c2ccccc2)C1 (configuration not stated),inactive: 0
